Experiments:
in vivo [1] = conditions: dog, iv
in vivo [2] = conditions: beagle, dog
[3] = Intravenous acute toxicity study in Crl:CD(SD) rat (toxicokinetics); type: in vivo; conditions: plasma, median
Procedure: The plasma TK of compound A was determined after a single IV dose in Crl:CD(SD) rats. […] For toxicokinetic evaluation, an additional 3 rats/sex/group were added for the 1 or 2.4 mg/kg dose groups. Toxicokinetic parameters were determined, where feasible, by non-compartmental analysis.

in vivo [4] = conditions: both sexes, Crl:CD(SD), rat
in vivo [5] = assay: in vivo; set-up: species or system Crl:CD(SD) rat; conditions: rat
[6] = Intra-articular acute toxicity study in the Beagle dog (toxicokinetics); conditions: for Tmax: male, beagle, dog, plasma
[7] = Final dose PK in the canine osteoarthritis study; type: in vivo, Beagle dogs; conditions: beagle, dog, 0.035 mg/knee; female Beagles, 35 μg IA weekly, after 6th dose, plasma; individual animals 1-6
Excerpt: Acetonitrile, water (Optima, LC/MS Grade) and formic acid, 99+% (Optima, LC/MS Grade) were purchased from Fisher Scientific. Control Female Sprague Dawley rat plasma (Sodium Heparin, 0.2 u filtered) was purchased from Bioreclamation IVT. Chromatography HPLC column, Luna, 5 um C18 (2), 50×2.0 mm and its guard security cartridge and holder were purchased from Phenomenex. HPLC (1100 Series) was purchased from Agilent. The Mass Spectrometer system, API 3000 was purchased from SCIEX. Separation was performed on a reversed phase C18 column with a gradient elution using mobile phases of 0.1% formic acid in water (A) and 0.1% formic acid in acetonitrile (B) with flow rate at 0.6 mL/min. […] Multiple reaction monitoring (MRM) was used for drug quantification, Precursor to Product ion transition was 347.0>268.9 (m/z). MRM for internal standard Kartogenin was 316.0>272.0 (m/z).
Calibration Standard curves were generated in rat plasma ranging from 1.53 to 781.3 ng/mL. Standards and samples were both prepared by protein precipitation (using internal standard, Kartogenin or KGN at 250 ng/mL in cold acetonitrile) and centrifugation. […]
Female Beagles underwent medial meniscal tear surgery to induce osteoarthritis. […] (a) AUC0-2=area under the plasma concentration-time curve (AUC) from the start of dosing (0) to the last quantifiable time point (τ), which was 2 hours. […]

COCCc1ccc(NC(=O)c2ccccc2NS(C)(=O)=O)cc1 [Compound A, N-(4-(2-methoxyethyl)phenyl)-2-(methylsulfonamido)benzamide]
Tmax (in vivo [1]; both, beagle): 10.2 min | Tmax (in vivo [1]; female, Beagle, 0.125 mg/kg): 10.2 min | Tmax (in vivo [1]; female, Beagle, 0.6 mg/kg): 10.2 min | Tmax (in vivo [1]; female, Beagle, 1.25 mg/kg): 10.2 min | Tmax (in vivo [1]; male, beagle, 0.125 mg/kg): 10.2 min | Tmax (in vivo [1]; male, beagle, 0.6 mg/kg): 10.2 min | Tmax (in vivo [1]; male, beagle, 1.25 mg/kg): 10.2 min | Tmax (in vivo [2]; both): 19.8 to 60 min | Tmax (in vivo [2]; male): 60 min | Tmax ([3]; female rats, single IV 1 mg/kg): 4.8 min | Tmax ([3]; female rats, single IV 2.4 mg/kg): 4.8 min | Tmax ([3]; male rats, single IV 1 mg/kg): 4.8 min | Tmax ([3]; male rats, single IV 2.4 mg/kg): 4.8 min | Tmax (in vivo [4]): 4.8 min | Tmax (in vivo [5]; female, Crl:CD(SD), 70 ug/kg): 60 min | differences in systemic exposure following single and repeat IA administration (in vivo [5]): no significant | Tmax ([6]; 35 μg/knee, Tmax, male dogs, single IA 35 μg/knee, individual animals 41M, 42M): 4.8 min | Tmax ([6]; 100 μg/knee, Tmax, male dogs, single IA 100 μg/knee, individual animals 43M, 44M): 60 min | Tmax ([6]; other: intra-articular, plasma Tmax, doses of 35, 100 and 200 ng, range): 4.8 to 60 min | dose proportionality of systemic plasma exposure (mean Cmax and AUC0-t) ([6]; single IA): less than dose-proportional | Tmax [7]: 30 min

Source: patent publication US20210361600A1, “METHODS FOR INDUCING CHONDROGENESIS” (THE SCRIPPS RESEARCH INSTITUTE, priority 2017, published 2021)
